Results on three molecules are retold here after PubChem BioAssay AID1645884 (National Center for Advancing Translational Sciences (NCATS), 2021).

Sequences of proteins named here, by UniProt entry; tags and fusion partners are left off.
UniProt Q8WZA2, whole entry: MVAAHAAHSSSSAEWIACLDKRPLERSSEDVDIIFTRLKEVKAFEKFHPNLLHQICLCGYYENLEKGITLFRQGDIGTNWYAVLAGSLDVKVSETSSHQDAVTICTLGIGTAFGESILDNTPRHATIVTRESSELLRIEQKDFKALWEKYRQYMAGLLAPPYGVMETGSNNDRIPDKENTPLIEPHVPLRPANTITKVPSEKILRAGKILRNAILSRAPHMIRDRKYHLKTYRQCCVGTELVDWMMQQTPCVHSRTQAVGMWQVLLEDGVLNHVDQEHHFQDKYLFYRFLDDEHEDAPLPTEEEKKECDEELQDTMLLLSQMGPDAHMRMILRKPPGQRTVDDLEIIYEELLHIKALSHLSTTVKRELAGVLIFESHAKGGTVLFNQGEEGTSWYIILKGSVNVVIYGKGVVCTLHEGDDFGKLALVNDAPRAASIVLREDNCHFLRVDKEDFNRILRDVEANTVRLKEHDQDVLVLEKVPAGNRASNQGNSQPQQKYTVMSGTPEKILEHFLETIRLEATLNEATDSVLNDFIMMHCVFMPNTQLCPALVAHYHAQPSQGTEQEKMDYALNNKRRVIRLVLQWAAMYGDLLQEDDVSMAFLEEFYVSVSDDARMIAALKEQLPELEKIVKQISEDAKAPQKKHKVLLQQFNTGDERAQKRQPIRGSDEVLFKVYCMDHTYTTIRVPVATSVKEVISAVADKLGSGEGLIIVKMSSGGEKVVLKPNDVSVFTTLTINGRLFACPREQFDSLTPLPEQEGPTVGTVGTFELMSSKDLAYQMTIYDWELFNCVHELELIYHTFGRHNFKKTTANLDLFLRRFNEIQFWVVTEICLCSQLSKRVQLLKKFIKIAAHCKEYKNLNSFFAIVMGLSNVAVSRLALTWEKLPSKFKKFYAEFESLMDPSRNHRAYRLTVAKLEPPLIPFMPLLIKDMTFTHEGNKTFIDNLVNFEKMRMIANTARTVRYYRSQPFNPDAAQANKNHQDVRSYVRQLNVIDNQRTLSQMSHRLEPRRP

Only a part is listed here, and it is no random draw. Records with an inconclusive call do not appear. Active and inactive are the calls of the source. The call rests on the fitted dose curve; in most records, active means well fitted activation curve with a large enough effect; inconclusive means small, poorly fitted or top-dose-only effect; inactive means no such curve, though single readings can be large or run the other way.
On the % scale 0 is the no-effect control and ±100 the full control effect.

This test concerns the target Rap guanine nucleotide exchange factor 4 (Homo sapiens) (UniProt Q8WZA2). The test is described as follows: Confirmatory qHTS for agonist of cAMP-regulated guanine nucleotide exchange factor 4 (EPAC2). Further: nearly all actives have a fitted effect of over 65% in size. The settings on record: EPAC2 GEF activity, Rap1B-BODIPY-GDP fluorescence, percent relative to cAMP agonist control; at 154 µM (top of the series). For orientation: qHTS replaces the single test concentration by a dilution series.
In the case of `CCCCn1nnnc1C(c1cc2ccccc2o1)N1CCC(n2c(=O)[nH]c3ccccc32)CC1` (stereo not drawn), the activation is inactive: 4.89%.
As to `CCC(c1nnnn1C(C)(C)C)N1CCC(n2c(=O)[nH]c3ccccc32)CC1` (stereo not drawn), the activation was inactive: -25.7%.
With `O=c1[nH]c2ccccc2n1C1CCN(C(c2ccccc2OC(F)(F)F)c2nnnn2C2CCCC2)CC1` (stereo not drawn) the figure was inactive: -25.5%.
